## Yeast mating assay B: variants of the scFv Ab-14

Source: Li et al. 2023 (doi:10.1038/s41467-023-39022-2), MIT Lincoln Laboratory and A-Alpha Bio; data file from the FLAb repository.

Target: peptide PDVDLGDISGINAS, taken from heptad repeat 2 (HR2) of SARS-CoV-2 spike.

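Phage display of a naive human antibody library on the peptide gave the parent. This is the validation round: designs drawn from the data on random variants, tested in the same kind of assay. Group labels follow the data file (Ctrl: baseline library sampled from a position-specific scoring matrix, with some repeated check sequences; Rand: our label for a block that the file lists under HC and that is probably the random mutants of the ten best first-round binders; GP: Gaussian process model; GPLM: also part of the Gaussian process libraries; HC: hill climbing; Gen: genetic algorithm; Gibbs: Gibbs sampling; a sequence that several methods proposed may carry one label only). Affinity was read by AlphaSeq, a pooled yeast mating assay with surface-displayed partners. Binding brings cells together so that they mate, and sequencing counts the barcode pairs among the diploids. The ratio of observed to expected reads was calibrated, replicate by replicate, on BCL2-family standards whose Kd was known from biolayer interferometry. Each pool was mated in six replicate cultures.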

Each scFv is VH, three GGGGS repeats, VL, as in the parent Ab-14, and differs from it in the CDRs of the heavy chain only.
VH: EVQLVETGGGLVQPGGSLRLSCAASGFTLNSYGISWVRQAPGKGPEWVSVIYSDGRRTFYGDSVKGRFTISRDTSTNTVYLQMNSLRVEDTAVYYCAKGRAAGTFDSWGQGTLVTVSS
VL: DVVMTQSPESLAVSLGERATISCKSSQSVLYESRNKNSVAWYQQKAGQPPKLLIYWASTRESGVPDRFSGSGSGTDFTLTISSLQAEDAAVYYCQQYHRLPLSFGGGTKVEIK

Positions count from residue 1 of the parent VH; S31D puts D in place of S.
This list holds designs with at most six substitutions.
Numbers give log10(Kd / nM), so 0 is 1 nM and 3 is 1 µM. Smaller is tighter.
"ND" means that the variant was in the library but no mating with the target was seen in that replicate; the authors take this as a sign of poor binding, and no number exists.

changes	group	log10 Kd, replicates
S31D A101M D106V	GPLM_HC	ND / ND / ND / ND / ND / ND
F27E S63D	Ctrl	ND / ND / 2.73 / ND / 2.48 / 2.15
F27V T28E N30E F59G A102Y	Ctrl	ND / ND / ND / ND / ND / ND
T28N G61I S63K R100Q	GP_Gibbs	ND / ND / ND / ND / ND / ND
G61S R100L A102G S107T	GPLM_HC	1.37 / ND / 0.37 / 0.11 / 0.25 / 1.43
T28S S31D G103L S107D	GP_HC	1.20 / 1.37 / 0.98 / 0.75 / 0.31 / 0.87
T28S S63Q R100M A101T	GP_Gen	-0.40 / -0.56 / -0.95 / -0.75 / -0.81 / 0.00
S31Q G61S G99W T104F	Rand	ND / ND / 2.62 / ND / ND / ND
S31D K65R	Ctrl	1.17 / 0.19 / 0.69 / 0.22 / 0.62 / 0.77
T28S S31E G61A R100Q	GPLM_Gen	-0.18 / 0.05 / -0.61 / -0.47 / -0.18 / -0.43
T28S G61C R100Q A101L	GP_HC	ND / ND / ND / ND / ND / ND
S31D G33W F59Q G61I	Rand	ND / ND / ND / ND / ND / ND
T28S R100S S107L	GPLM_Gen	ND / 1.08 / 0.05 / 0.47 / 0.41 / 0.90
T28E S63D R100S A101T	GP_Gibbs	-0.12 / -0.09 / -0.33 / -0.24 / -0.14 / -0.40
T28D G61A S63E A101Q	GP_Gen	-0.22 / -0.27 / -0.07 / 0.26 / 0.52 / 0.07
T28N R100K A101T S107A	GP_Gibbs	0.88 / 0.65 / 0.95 / 0.68 / 1.03 / 1.20
T28E S31D G61I	GPLM_Gen	1.19 / 0.20 / 0.52 / 0.60 / 0.24 / 0.71
T28D R100K S107T	GPLM_Gibbs	1.26 / 0.16 / 0.11 / -0.02 / 0.98 / -0.03
S31E R100E A101L	Ctrl	0.99 / 0.25 / ND / 1.11 / 1.15 / 0.77
G61I R100K A101I	GPLM_Gibbs	1.84 / 2.64 / 1.46 / 1.30 / 2.55 / ND
G26K S31E G61I A101C	GP_HC	ND / ND / ND / ND / ND / ND
T28W S53A R100S	GP_HC	ND / -0.36 / ND / -0.10 / 1.32 / ND
G26Q T28D R100K A101E	GP_Gibbs	1.21 / 0.45 / 1.15 / 0.48 / 0.15 / 0.18
F27I S31D G61Q	Ctrl	2.78 / 2.55 / 1.66 / ND / 3.96 / 4.77
S31D R56Y R100D F105V	Ctrl	ND / 2.88 / ND / 2.26 / ND / ND
N30E S53A R56H G61S R100S T104N	Ctrl	ND / ND / ND / ND / ND / ND
G26Y G61S A102G	Rand	ND / ND / ND / ND / ND / ND
G61S R100K A101L S107T	GPLM_Gibbs	0.74 / 0.90 / 0.65 / 0.65 / 0.67 / 0.80
S31E G103L D106I S107F	GP_HC	-0.20 / 0.51 / 0.27 / 0.36 / -0.08 / 0.51
T28D G103W S107K	GP_HC	ND / ND / ND / ND / ND / ND
T28S G61A S63D R100N S107K	GP_Gen	0.40 / 0.43 / 0.03 / 0.03 / 0.21 / 0.29
S31N G61D R100Q A101E	GP_HC	ND / 0.97 / 0.84 / 1.07 / ND / 1.30
I34S S63K	Ctrl	ND / ND / ND / ND / ND / ND
F27W S31Q S53P G61A T104F	Rand	ND / ND / ND / ND / ND / ND
T28E S31E G61D R100K	GP_Gen	0.14 / -0.06 / 0.11 / 0.35 / -0.24 / -0.34
R56M G61S R100F A101T	GP_HC	0.24 / 0.10 / 0.62 / -0.06 / 0.48 / 0.58
F27I T28S	Ctrl	ND / 2.53 / 1.62 / 2.86 / ND / 2.89
F59M G61I A101L F105P	Ctrl	ND / ND / ND / 2.29 / ND / ND
T28S F59A G61Q R100N	GP_Gibbs	-0.56 / 0.65 / -0.45 / -0.93 / -0.22 / ND
S31D A101M D106L	GPLM_HC	0.41 / -0.05 / 0.80 / -0.53 / -0.47 / -0.05
G26T S31E G33A G61T A101F	Rand	ND / ND / ND / ND / ND / ND
T28N S63P R100Q A101T	GP_Gen	2.04 / 2.34 / ND / 1.37 / 2.11 / ND
T28D S35F I51R T104W D106N	Rand	ND / ND / ND / ND / ND / ND
T28Q G61A A101M	GPLM_Gibbs	0.63 / 0.61 / 1.60 / 0.72 / 1.10 / 1.09
S31E R56M G99L A101S	Ctrl	ND / ND / ND / ND / ND / ND
T28S G61I A101T	GPLM_Gen	ND / ND / ND / ND / 0.15 / ND
T28S G61Q R100W	GPLM_Gen	ND / ND / 1.94 / 0.26 / ND / ND
S31E D106M S107C	GP_HC	ND / ND / ND / ND / ND / ND
T28L S31D G61K R100H	GP_HC	1.20 / 0.34 / 0.46 / 0.49 / 0.68 / 1.16

Excerpt, the final 5 entries:

{"changes": "S31E R56M G99L A101S", "group": "Ctrl", "log10 Kd, replicates": "ND / ND / ND / ND / ND / ND"}
{"changes": "T28S G61I A101T", "group": "GPLM_Gen", "log10 Kd, replicates": "ND / ND / ND / ND / 0.15 / ND"}
{"changes": "T28S G61Q R100W", "group": "GPLM_Gen", "log10 Kd, replicates": "ND / ND / 1.94 / 0.26 / ND / ND"}
{"changes": "S31E D106M S107C", "group": "GP_HC", "log10 Kd, replicates": "ND / ND / ND / ND / ND / ND"}
{"changes": "T28L S31D G61K R100H", "group": "GP_HC", "log10 Kd, replicates": "1.20 / 0.34 / 0.46 / 0.49 / 0.68 / 1.16"}

As a blank, each scFv also met three strains without target: over all heavy chain designs, 1% of these pairings were detected, typically at 2.08 and seldom below 0.84.
The parent sequence was in this pool as ten entries: three were never detected, three once, and four in most replicates, with averages from 0.34 to 2.37.
The authors averaged sequences with at least three values out of six and counted those with two or fewer as poor binders.
The range of this assay differs from that of the first round, and the authors advise against merging the two.